# Laboratory results as given in US9969796B2, “Peptides and binding partners therefor” (priority 2013, dated 2018).
# System: EGFR signalling in oral epithelial cells (TR146)
# Type: cell-based, human
structure (smiles),measurement,value
COc1cc2ncnc(Nc3ccc(F)c(Cl)c3)c2cc1OCCCN1CCOCC1 [Gefitnib],"activation of MAPK intracellular signalling (phosphorylated p38, JNK and ERK1/2)",inhibits
